{"sequences": {"note": "Protein sequences, listed by entry. Tags and fused reporters are not part of them. Residues count along the entry.", "UniProt P21450, 21-427": "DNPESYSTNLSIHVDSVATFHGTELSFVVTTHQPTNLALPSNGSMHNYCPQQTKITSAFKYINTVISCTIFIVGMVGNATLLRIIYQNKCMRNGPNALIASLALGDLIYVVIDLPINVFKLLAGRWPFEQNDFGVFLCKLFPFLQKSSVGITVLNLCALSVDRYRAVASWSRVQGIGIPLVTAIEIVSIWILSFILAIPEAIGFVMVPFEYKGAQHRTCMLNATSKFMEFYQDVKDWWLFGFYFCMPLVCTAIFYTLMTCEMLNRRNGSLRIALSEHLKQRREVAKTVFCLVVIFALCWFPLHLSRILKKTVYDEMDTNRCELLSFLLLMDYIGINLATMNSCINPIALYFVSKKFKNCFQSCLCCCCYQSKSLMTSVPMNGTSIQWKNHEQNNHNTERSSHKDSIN", "UniProt P25103, whole entry": "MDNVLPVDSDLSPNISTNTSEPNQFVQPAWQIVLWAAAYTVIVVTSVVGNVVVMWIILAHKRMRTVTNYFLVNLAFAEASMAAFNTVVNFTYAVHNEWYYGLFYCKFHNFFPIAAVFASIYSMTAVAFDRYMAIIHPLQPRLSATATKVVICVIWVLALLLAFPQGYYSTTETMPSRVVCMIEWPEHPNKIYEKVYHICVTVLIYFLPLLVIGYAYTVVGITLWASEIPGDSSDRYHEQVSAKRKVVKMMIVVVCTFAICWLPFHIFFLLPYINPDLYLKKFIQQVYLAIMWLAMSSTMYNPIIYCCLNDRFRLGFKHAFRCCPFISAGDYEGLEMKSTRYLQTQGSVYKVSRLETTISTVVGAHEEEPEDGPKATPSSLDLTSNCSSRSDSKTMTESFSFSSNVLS", "UniProt P21452, whole entry": "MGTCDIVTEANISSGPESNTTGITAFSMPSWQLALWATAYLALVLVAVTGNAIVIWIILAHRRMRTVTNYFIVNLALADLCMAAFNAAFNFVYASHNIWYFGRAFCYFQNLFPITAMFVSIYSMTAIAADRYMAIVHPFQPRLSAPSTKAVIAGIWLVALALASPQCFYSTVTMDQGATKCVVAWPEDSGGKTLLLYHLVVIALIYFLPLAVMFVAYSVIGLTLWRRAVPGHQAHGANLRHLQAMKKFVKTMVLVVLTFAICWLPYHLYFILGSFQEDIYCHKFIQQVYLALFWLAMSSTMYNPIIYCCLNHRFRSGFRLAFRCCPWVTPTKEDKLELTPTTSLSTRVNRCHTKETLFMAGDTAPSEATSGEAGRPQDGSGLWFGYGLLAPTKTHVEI"}, "source": "patent US20090156501A1", "about": "“IDENTIFICATION OF LIGANDS BY SELECTIVE AMPLIFICATION OF CELLS TRANSFECTED WITH RECEPTORS” (ACADIA PHARMACEUTICALS, INC., priority 1999, published 2009)", "key": {"Endothelin ETA receptor": {"molecular_target": "T1, Endothelin ETA receptor (Bos taurus, UniProt P21450)", "T1 construct": "expressed in transfected cells; host or cells: NIH 3T3", "assay": "Single Receptor Format amplification assay, endothelin ETA", "type": "cell-based", "details": "7-9 doses in duplicate; read-out: Ligand EC50 nM, ETA"}, "Endothelin ETB receptor": {"molecular_target": "T2, Endothelin ETB receptor (Rattus norvegicus, UniProt P21451)", "T2 construct": "expressed in transfected cells; host or cells: NIH 3T3", "T2 sequence (P21451 27-442)": "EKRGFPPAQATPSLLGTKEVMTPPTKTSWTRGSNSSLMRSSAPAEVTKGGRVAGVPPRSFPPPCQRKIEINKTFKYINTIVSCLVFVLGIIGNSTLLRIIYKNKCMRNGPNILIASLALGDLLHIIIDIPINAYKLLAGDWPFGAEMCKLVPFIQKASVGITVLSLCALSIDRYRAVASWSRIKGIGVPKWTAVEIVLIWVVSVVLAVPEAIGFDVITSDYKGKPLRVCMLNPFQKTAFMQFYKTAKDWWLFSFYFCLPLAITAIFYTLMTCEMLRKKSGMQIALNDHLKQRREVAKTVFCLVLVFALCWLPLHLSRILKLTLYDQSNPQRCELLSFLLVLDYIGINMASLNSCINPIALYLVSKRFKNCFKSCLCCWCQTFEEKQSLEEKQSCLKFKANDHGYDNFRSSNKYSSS", "assay": "Single Receptor Format amplification assay, endothelin ETB", "type": "cell-based", "details": "7-9 doses in duplicate; read-out: Ligand EC50 nM, ETB"}, "Tachykinin NK1 receptor": {"molecular_target": "T3, Tachykinin NK1 receptor (Homo sapiens, UniProt P25103)", "T3 construct": "expressed in transfected cells; host or cells: NIH 3T3", "assay": "Single Receptor Format amplification assay, tachykinin NK1", "type": "cell-based", "details": "7-9 doses in duplicate; read-out: Ligand EC50 nM, NK1"}, "Tachykinin NK2 receptor": {"molecular_target": "Tachykinin NK2 receptor (Homo sapiens, UniProt P21452)", "details": "read-out: Ligand EC50 nM, NK2; 7-9 doses in duplicate"}}}
{"substance": "ET-1", "values": [{"measurement": "EC50", "setting": "Endothelin ETA receptor", "value": "0.079 ± 0.048", "unit": "nM"}, {"measurement": "EC50", "setting": "Endothelin ETB receptor", "value": "0.24 ± 0.2", "unit": "nM"}]}
{"substance": "neurokinin A", "values": [{"measurement": "EC50", "setting": "Tachykinin NK1 receptor", "value": "14 ± 5", "unit": "nM"}]}
{"substance": "neurokinin B", "values": [{"measurement": "EC50", "setting": "Tachykinin NK2 receptor", "value": "1.3 ± 0.7", "unit": "nM"}]}
